In data set [1] the test system is Human whole blood stimulated with a TLR2 agonist (lipoteichoic acid), IL-6 levels. As to the kind of experiment: IRAK4 Whole Blood Assay. As to conditions: read-out: Whole Blood EC50, lipoteichoic acid 10 μg/mL. As for the experimental part: Human whole blood containing the anti-coagulant ACD-A was plated in 384-well plate (25 μL/well) and incubated with compounds for 60 minutes at 37° C. in a 5% CO2 incubator. The blood was stimulated with a TLR2 agonist, 10 μg/mL final concentration of lipoteichoic acid (Invivogen, San Diego, Calif.) in 25 μL RPMI (Gibco) for 5 hours in a 5% CO2 incubator. At the end of the incubation, plates were centrifuged at 2300 rpm for 5 minutes. Supernatants were harvested and analyzed for IL-6 levels by Flow Cytometry beads assay (BD Biosciences, San Jose, Calif.).

Chains of the proteins cited; added tags and fusions are not shown.
UniProt Q9NWZ3, whole entry: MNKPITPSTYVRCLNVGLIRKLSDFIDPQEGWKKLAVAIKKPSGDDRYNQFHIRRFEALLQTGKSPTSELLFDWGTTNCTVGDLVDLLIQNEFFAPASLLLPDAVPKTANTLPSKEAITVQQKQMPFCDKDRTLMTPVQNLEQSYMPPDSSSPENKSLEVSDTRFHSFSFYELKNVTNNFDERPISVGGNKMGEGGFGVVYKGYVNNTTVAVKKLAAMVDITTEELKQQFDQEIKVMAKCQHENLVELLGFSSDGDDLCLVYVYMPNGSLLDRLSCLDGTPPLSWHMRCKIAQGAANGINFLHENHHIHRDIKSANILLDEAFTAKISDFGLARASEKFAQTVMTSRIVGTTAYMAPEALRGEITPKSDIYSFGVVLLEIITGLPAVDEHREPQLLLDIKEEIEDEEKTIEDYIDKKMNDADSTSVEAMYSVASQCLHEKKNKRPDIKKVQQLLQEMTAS

Data set [2] concerns Caco-2 cells. As to the kind of experiment: Caco-2 Permeability Assay. The note with it: test compound 3 μM. As to the method:
Caco-2 Permeability Assay
Thirteen to 27 days prior to assay, Caco-2 cells were seeded onto collagen-coated polycarbonate filter membranes in 24-well transwell plates at a density of 1.45×10^5 cells/cm^2, approximately 4.8×10^4 cells per well. The cells were grown in a culture medium consisting of DMEM supplemented with 10% fetal bovine serum, 10 mM HEPES, 1% nonessential amino acids, 2 mM L-glutamine, 100 U/mL penicillin-G, and 100 μg/mL streptomycin. The culture medium was replaced every 3 days and the cells were maintained at 37° C. in a 95% relative humidity and 5% CO2 atmosphere. The cells were evaluated for tight junction formation just prior to assay. The test compound was solubilized to 10 mM in 100% DMSO and diluted to 3 μM in assay buffer. Permeability studies were initiated by adding 200 μL assay buffer plus/minus compound to the apical transwell compartment and 600 μL assay buffer plus/minus compound to the basolateral compartment of the 24-well transwell low-binding cluster plate. For apical-to-basolateral (A to B) permeability (absorptive direction), buffer containing compound was placed in the apical compartment (donor wells), while buffer alone was placed in the corresponding basolateral compartments (receiver wells). […] The samples were subsequently analyzed by LC-MS/MS to determine concentrations of compound.
(In general: Passage across Caco-2 layers is used to estimate intestinal permeability.)

Data set [3] addresses IRAK4 (Homo sapiens (Human), UniProt Q9NWZ3). As to the kind of experiment: IRAK4 Inhibition Assay. The note with it: read-out: IRAK4 IC50; ATP 500 μM; IRAK4 0.6 nM. As for the experimental part:
The assays were performed in U-bottom 384-well plates. The final assay volume was 30 μL prepared from 15 μL additions of enzyme and substrates (fluoresceinated peptide and ATP) and test compounds in assay buffer (20 mM HEPES pH 7.2, 10 mM MgCl2, 0.015% Brij 35 and 4 mM DTT). The reaction was initiated by the combination of IRAK4 with substrates and test compounds. The reaction mixture was incubated at room temperature for 60 min. and terminated by adding 45 μL of 35 mM EDTA to each sample. The reaction mixture was analyzed on the Caliper LABCHIP® 3000 (Caliper, Hopkinton, Mass.) by electrophoretic separation of the fluorescent substrate and phosphorylated product. Inhibition data were calculated by comparison to no enzyme control reactions for 100% inhibition and vehicle-only reactions for 0% inhibition. The final concentrations of reagents in the assays are ATP, 500 μM; FL-IPTSPITTTYFFFKKK peptide 1.5 μM; IRAK4, 0.6 nM; and DMSO, 1.6%.

One may read the IC50 as the concentration at which inhibition is half-maximal.

For the compound `CC(C)Nc1cc(-n2ncc3cc(C#N)cnc32)ncc1C1=NOC(CCC(C)(C)O)C1` (single isomer, unassigned) [435, enantiomer 2], the EC50 in data set [1] was 0.48 µM. Further, the “Caco-2 Permeability” value in data set [2] came out at 264 nm/s.
For the compound `CC(C)Nc1cc(-n2ncc3cc(C#N)cnc32)ncc1-n1cc(CC(F)C(C)(C)O)nn1` (single isomer, unassigned), the IC50 in data set [3] was 0.002 µM. For the same compound, in data set [1], the EC50 worked out at 0.2 µM. The “Caco-2 Permeability” value in data set [2] came to 160 nm/s.
Consider `CC(C)Nc1cc(-n2ncc3cc(C#N)cnc32)ncc1C1=NOC(CCC(C)(C)O)C1` (single isomer, unassigned) [435, enantiomer 1], for which the EC50 in data set [1] is 0.42 µM.
For the compound `CC(C)Nc1cc(-n2ncc3cc(N)cnc32)ncc1-n1cc(CCC(C)(C)O)nn1`, the IC50 in data set [3] turned out to be 0.02 µM. The EC50 in data set [1] was found to be 0.46 µM.
